{"source": "ChEMBL document CHEMBL2429794", "about": "“Tuning the antibacterial activity of amphiphilic neamine derivatives and comparison to paromamine homologues” (J Med Chem, 2013)", "key": {"Escherichia coli": {"test_system": "Escherichia coli", "settings": "ATCC 25922"}, "Staphylococcus aureus": {"test_system": "Staphylococcus aureus", "settings": "ATCC 25923"}, "Acinetobacter lwoffii": {"test_system": "Acinetobacter lwoffii", "assay": "Antibacterial activity against Acinetobacter lwoffii ATCC 17925 after 24 hrs by geometric microdilution method", "type": "functional"}}, "data": [{"sequence": "GENTAMICIN", "values": [{"measurement": "MIC", "setting": "Escherichia coli", "result": "< 0.5", "unit": "µg/mL"}, {"measurement": "MIC", "setting": "Staphylococcus aureus", "result": 0.5, "unit": "µg/mL"}, {"measurement": "MIC", "setting": "Acinetobacter lwoffii", "result": 0.5, "unit": "µg/mL"}]}]}
